## scFv variants of Ab-14 (light chain) against a SARS-CoV-2 spike peptide

The measurements come from Li et al. 2023 (doi:10.1038/s41467-023-39022-2) through the FLAb antibody collection.

Target: peptide PDVDLGDISGINAS, taken from heptad repeat 2 (HR2) of SARS-CoV-2 spike.

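These sequences belong to a second round, designed from the earlier measurements on random variants of the parent. Their group label is 14L_En_HC (En: ensemble of fine-tuned language models; HC: hill climbing; a sequence that several methods proposed may carry one label only). The scFvs were displayed on barcoded MATa yeast, the peptide on MATalpha yeast. Binding brings cells together so that they mate, and sequencing counts the barcode pairs among the diploids. A regression on co-assayed BCL2-family reference pairs converts the normalised counts of each replicate to an apparent Kd. Mating was done six times.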

Parent scFv Ab-14: VH joined to VL by a 15-residue (Gly4Ser)3 linker. Changes lie in the light chain CDRs alone.
VH: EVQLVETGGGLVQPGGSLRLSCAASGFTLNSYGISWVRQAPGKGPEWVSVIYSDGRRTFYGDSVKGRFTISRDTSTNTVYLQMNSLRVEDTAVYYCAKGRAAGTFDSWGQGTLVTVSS
VL: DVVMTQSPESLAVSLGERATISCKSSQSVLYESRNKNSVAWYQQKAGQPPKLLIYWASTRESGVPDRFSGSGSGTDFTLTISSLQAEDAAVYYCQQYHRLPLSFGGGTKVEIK

The parent's light chain CDRs are KSSQSVLYESRNKNSVA, WASTRES, QQYHRLPLS; each variant's own CDRs replace them letter for letter.
Affinities are written as log10 Kd with Kd in nM; a lower number is a better binder.
"ND" marks a missing value. The strain was present, yet no cells mated with the target were sequenced in that replicate, which points to weak or no binding.
Of ten entries with the parent sequence, four were seen in most replicates (averages 0.34 to 2.37), three in one and three in none, so single entries are noisy.
Nonspecific signal, from three strains lacking the peptide, appeared in 4% of pairings of all light chain designs, centred on 2.64 (5% of these signals below 1.59); values are not corrected for it. For each scFv, signals with the empty controls are counted beside the result, with their mean in brackets.
A sequence measured in both rounds can read differently, since the two assays cover different ranges.
In the paper, a design with two or fewer of six values counts as a poor binder.

| # | CDR-L1 | CDR-L2 | CDR-L3 | replicates, log10 nM | control signals |
|---|---|---|---|---|---|
| 1 | MFSQLVYTGSRTKNAVA | QASTREN | QQYHRLPLM | 2.07 / ND / 1.29 / 1.48 / ND / ND | 0/18 |
| 2 | TVSQVYGMLSHNKNSVA | DMNTRGS | QQYDRLPLS | -0.07 / -0.31 / -0.20 / -0.46 / -0.39 / -0.15 | 1/18 (2.41) |
| 3 | TISQLMLYESRNKNNVA | GTSTREN | QCYHRLPLS | ND / ND / 2.14 / 1.90 / ND / ND | 1/18 (2.85) |
| 4 | NFPQEVMYESHFKNNVA | QTSTREP | QQYDHLPLS | 0.40 / 0.14 / 0.24 / 0.24 / 0.63 / 0.37 | 0/18 |
| 5 | SFSQTVMYESTYRNNVA | QTSTRES | QQYDRLPLS | 0.61 / 0.61 / 0.90 / 0.43 / 0.42 / 0.44 | 2/18 (2.26) |
| 6 | MLSDVVKMGSRNTNSVA | DNSTRGS | QQYDRLPLS | 4.20 / ND / 2.12 / 2.74 / 3.05 / 3.66 | 1/18 (3.25) |
| 7 | SISQLVAYGSRNKNSVA | QMSTREN | QQYDRLPLS | ND / 0.50 / 1.54 / 0.32 / 0.70 / 0.04 | 1/18 (2.26) |
| 8 | KLYMSTGYEMRNADSIA | DNSTRGR | QQYHRLPLS | ND / 2.63 / ND / ND / 2.94 / ND | 0/18 |
| 9 | KISQSILFMSGMKNAIA | QMEMREE | QQYHRLPLS | ND / ND / ND / ND / ND / ND | 0/18 |
| 10 | KLGQMTAIESRNNNSVA | QMDTREE | QQYDRLPLS | 0.91 / 1.32 / 0.97 / 1.28 / 0.72 / 1.42 | 1/18 (3.87) |
| 11 | KLSESAHFESRKKNSVA | ENSTRES | QQYDHLPLS | 1.33 / 1.88 / 2.24 / 1.87 / 1.78 / 1.53 | 2/18 (2.30) |
| 12 | KIGQQVTYESTKKNAIA | QMTTREE | QQYHRLPLS | 0.66 / 0.54 / 0.78 / 0.49 / 0.99 / 0.72 | 0/18 |
| 13 | IISGQMLMESRNKNSVA | NAETREY | QHYDRLPLS | 0.36 / -0.21 / ND / 0.47 / 0.18 / 0.89 | 0/18 |
| 14 | MFSQLTYTGSRARNAVA | QASTREN | QQYHHLPLM | 1.27 / 1.02 / 0.58 / 0.54 / 0.90 / 0.96 | 0/18 |
| 15 | TLGDVTRMESNKKNSIA | DMSNRAD | QQYHRLPLS | -0.05 / -0.08 / -0.12 / -0.11 / -0.12 / -0.10 | 3/18 (3.55) |
| 16 | TLMEVGGYQLNQHNSIA | DLRTREN | QQYHRLPLS | 1.20 / 0.95 / 1.49 / 1.12 / 1.61 / 1.72 | 1/18 (2.52) |
| 17 | KLSMTYRYESENKNSIA | ELVTRMS | QQYHRLPLS | ND / 0.63 / 0.64 / 0.87 / 1.04 / 1.53 | 0/18 |
| 18 | KISNMSTIESITHNSVA | QTSTRES | QQYDRLPLS | 0.46 / 0.99 / 0.60 / 1.17 / 0.48 / 1.22 | 0/18 |
| 19 | IITQSVMQESRNKSNVA | NTAEREP | QQYDRLPLI | 2.24 / 2.99 / 1.45 / 1.96 / 2.89 / 2.28 | 1/18 (2.81) |
| 20 | KISGYLNKETKNKNSVA | EMVNRES | QQYDRLPLS | 0.93 / 1.29 / 0.80 / 1.16 / 0.75 / 0.60 | 0/18 |
| 21 | TLTQVQGMESHNKNSVA | DLSTRGS | QQYDRLPLS | 0.35 / 0.17 / 0.65 / 0.67 / 1.04 / 1.10 | 0/18 |
| 22 | KFGQMVLTGTYVKNSVA | QSSTREN | QQYHRLPLS | ND / 2.26 / 1.14 / 2.12 / 1.10 / 1.41 | 0/18 |
| 23 | KLSISGMHESIDKKSIA | ERSTREN | QQYHRLPLS | 0.11 / 0.23 / -0.17 / 0.01 / 0.18 / 0.65 | 1/18 (1.66) |
| 24 | MLSDLNKMGVRNTQSVA | DNSTRGE | QQYDRLPLS | 1.11 / 1.23 / 0.77 / 0.94 / 1.33 / 1.12 | 0/18 |
| 25 | MMSQMFEGLSTSKNPVA | QVSTRFE | QQYHRLPLS | 2.85 / 2.22 / 2.83 / 2.88 / 3.14 / 2.03 | 0/18 |
| 26 | ALSQSMDMTSRNKNSVA | DLTLREN | QQYHRLPLS | 0.12 / 0.28 / 0.33 / 0.01 / 0.28 / 0.31 | 1/18 (3.45) |
| 27 | HISHSVGMTSRNKNSVA | ENSTRED | QQYDRLPLS | ND / 0.40 / ND / 0.56 / ND / ND | 0/18 |
| 28 | KISQMSTIESIMHNSVA | QTSTREK | QQYDRLPLS | 1.08 / 0.41 / 0.69 / 0.88 / 0.31 / 0.75 | 0/18 |
| 29 | NISQMIFTETKNVNNVA | QTSTREE | QDYHRLPLS | 0.08 / 0.05 / -0.08 / 0.00 / -0.69 / -0.27 | 0/18 |
| 30 | TISQGTYWESRNKNSVA | QTSTREE | QDYDRLPLS | ND / ND / ND / ND / ND / ND | 0/18 |
| 31 | KLGEATRFESSNKASIA | NNSTREE | QQYHRLPLS | 1.07 / 0.90 / 0.92 / 0.58 / 0.72 / 0.95 | 2/18 (2.83) |
| 32 | KIMSGTNGEKFQSNSIA | QTSTREE | QQYHRLPLS | 0.83 / 0.50 / 0.49 / 0.66 / 0.69 / 0.64 | 1/18 (2.27) |

Picked from the list: the 5 lowest averages where every replicate gave a value.

{"CDR-L1": "TVSQVYGMLSHNKNSVA", "CDR-L2": "DMNTRGS", "CDR-L3": "QQYDRLPLS", "replicates, log10 nM": "-0.07 / -0.31 / -0.20 / -0.46 / -0.39 / -0.15", "control signals": "1/18 (2.41)"}
{"CDR-L1": "NISQMIFTETKNVNNVA", "CDR-L2": "QTSTREE", "CDR-L3": "QDYHRLPLS", "replicates, log10 nM": "0.08 / 0.05 / -0.08 / 0.00 / -0.69 / -0.27", "control signals": "0/18"}
{"CDR-L1": "TLGDVTRMESNKKNSIA", "CDR-L2": "DMSNRAD", "CDR-L3": "QQYHRLPLS", "replicates, log10 nM": "-0.05 / -0.08 / -0.12 / -0.11 / -0.12 / -0.10", "control signals": "3/18 (3.55)"}
{"CDR-L1": "KLSISGMHESIDKKSIA", "CDR-L2": "ERSTREN", "CDR-L3": "QQYHRLPLS", "replicates, log10 nM": "0.11 / 0.23 / -0.17 / 0.01 / 0.18 / 0.65", "control signals": "1/18 (1.66)"}
{"CDR-L1": "ALSQSMDMTSRNKNSVA", "CDR-L2": "DLTLREN", "CDR-L3": "QQYHRLPLS", "replicates, log10 nM": "0.12 / 0.28 / 0.33 / 0.01 / 0.28 / 0.31", "control signals": "1/18 (3.45)"}